# According to PubChem BioAssay (EPA / NIEHS):
# Chains of the proteins cited; added tags and fusions are not shown. Lines headed by an entry give the natural chain unless they say otherwise; changes in a name come on top.
# UniProt Q9UNQ0: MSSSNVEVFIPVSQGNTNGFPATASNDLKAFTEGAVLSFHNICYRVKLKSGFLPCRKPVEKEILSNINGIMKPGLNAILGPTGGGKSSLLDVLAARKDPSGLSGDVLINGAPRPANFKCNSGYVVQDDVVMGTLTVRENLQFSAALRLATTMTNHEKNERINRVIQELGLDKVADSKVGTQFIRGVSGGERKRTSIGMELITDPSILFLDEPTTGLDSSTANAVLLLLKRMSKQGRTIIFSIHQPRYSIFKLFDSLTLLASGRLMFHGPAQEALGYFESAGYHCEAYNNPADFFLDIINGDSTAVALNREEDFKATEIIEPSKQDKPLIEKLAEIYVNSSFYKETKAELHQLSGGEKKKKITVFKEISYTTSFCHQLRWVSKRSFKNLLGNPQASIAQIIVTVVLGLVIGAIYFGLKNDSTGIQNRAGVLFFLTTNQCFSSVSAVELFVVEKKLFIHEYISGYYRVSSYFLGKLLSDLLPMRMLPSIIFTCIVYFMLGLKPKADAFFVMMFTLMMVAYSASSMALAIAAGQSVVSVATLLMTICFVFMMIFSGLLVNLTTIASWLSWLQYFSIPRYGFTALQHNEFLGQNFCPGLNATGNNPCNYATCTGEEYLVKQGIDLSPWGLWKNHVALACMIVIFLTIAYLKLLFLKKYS
# UniProt P20813: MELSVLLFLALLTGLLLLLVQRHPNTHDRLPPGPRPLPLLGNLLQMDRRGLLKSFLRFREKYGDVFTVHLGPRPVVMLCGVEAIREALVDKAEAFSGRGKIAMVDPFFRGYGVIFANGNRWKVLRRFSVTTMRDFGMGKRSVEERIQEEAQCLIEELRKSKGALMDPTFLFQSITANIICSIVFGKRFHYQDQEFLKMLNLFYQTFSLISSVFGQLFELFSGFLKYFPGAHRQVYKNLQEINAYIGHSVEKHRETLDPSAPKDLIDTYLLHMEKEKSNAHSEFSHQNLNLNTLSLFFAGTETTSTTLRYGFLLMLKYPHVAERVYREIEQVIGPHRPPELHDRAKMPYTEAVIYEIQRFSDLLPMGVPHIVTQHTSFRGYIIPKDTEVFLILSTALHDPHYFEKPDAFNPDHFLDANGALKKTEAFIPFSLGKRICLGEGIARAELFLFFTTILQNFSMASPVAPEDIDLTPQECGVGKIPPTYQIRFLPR
# UniProt P33261, whole entry, looked up: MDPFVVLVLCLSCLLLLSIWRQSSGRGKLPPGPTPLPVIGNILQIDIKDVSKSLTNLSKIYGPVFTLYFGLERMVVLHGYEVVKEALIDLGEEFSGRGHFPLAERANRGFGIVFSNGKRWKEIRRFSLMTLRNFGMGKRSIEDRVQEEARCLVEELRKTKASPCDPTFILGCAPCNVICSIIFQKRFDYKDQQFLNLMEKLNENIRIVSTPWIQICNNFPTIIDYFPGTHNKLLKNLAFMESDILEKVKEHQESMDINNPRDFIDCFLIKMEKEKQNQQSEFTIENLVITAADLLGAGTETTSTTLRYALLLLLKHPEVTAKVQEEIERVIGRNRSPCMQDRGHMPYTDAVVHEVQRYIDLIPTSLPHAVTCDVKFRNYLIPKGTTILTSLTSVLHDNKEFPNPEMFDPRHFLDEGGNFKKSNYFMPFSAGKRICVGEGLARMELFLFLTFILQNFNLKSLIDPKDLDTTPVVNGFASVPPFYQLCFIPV
# Several values for one entry are separate records, joined by “and”; a condition that tells them apart may be missing. Equal entries are not always repeated. The list shows a part of the results, in another mix than the full data. Inconclusive results are not listed. Some compounds were tested as several samples or in several runs, with calls that do not always agree. Activity calls are given as the source filed them. The calls were made as follows, unless noted: active = hit-call score of the fitted dose curve at least 0.9, where 1 is the maximum; inconclusive = response in the unintended direction; inactive = score below 0.9.
# Experiments:
# [1] = system: Thyroperoxidase (TPO), gene 54314; assay: CCTE_Simmons_AUR_rTPO: CCTE's Amplex UltraRed Assay for Thyroperoxidase (TPO) Inhibition, Simmons Lab (AID 2283662);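 as to AC50: potency for loss of signal meaning inhibition of peroxidase activity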
# Method in brief: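 Rat thyroid microsomes (5 ug protein) with 25 uM Amplex UltraRed and 300 uM H2O2 in 200 mM phosphate buffer, 30 min at 37C in dark; fluorescence 544/590 nm. Eight concentrations, 5 nM–87.5 uM final, 0.5% DMSO, triplicate biological replicates.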
# [2] = CCTE_Simmons_CellTiterGLO_HEK293T: Viability Assessment in CCTE's Assays for Thyroperoxidase (TPO) Inhibition, Simmons Lab (AID 2283665);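 as to AC50: cells exposed to compound for 24 h before readout; actives reduce ATP signal below DMSO vehicle meaning cytotoxicity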
# Method in brief: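 Luciferase-coupled ATP content after 24 h exposure gives viability; 8-point series from 5 nM to 87.5 uM final in 0.5% DMSO. Human HEK293T cells, 1% FBS medium, three biological replicates, dichlone positive control.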
# [3] = read-out: ABC Transporter (ABCB1), ABCB1 (gene 5243); assay: CLD_ABCB1_6hr: CellzDirect (CLD) Gene Expression Assay for ABC Transporter (ABCB1) at 6 hours (AID 2283659);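 also: hits raise ABCB1 transcript above the DMSO vehicle baseline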
# Method in brief: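 ABCB1 transcript measured by quantitative nuclease protection assay, chemiluminescent read-out, 6 h after dosing human hepatocyte cultures (0.2% DMSO vehicle, daily redosing). Activity fitted as increase over DMSO baseline; cytotoxicity flagged by phase-contrast morphology.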
# [4] = read-out: Broad substrate specificity ATP-binding cassette transporter ABCG2 (Homo sapiens) (UniProt Q9UNQ0); assay: CLD_ABCG2_6hr: CellzDirect (CLD) Gene Expression Assay for ABC Transporter (ABCG2) at 6 hours (AID 2283660)
# Method in brief: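 ABCG2 mRNA induction measured by qNPA chemiluminescence in human primary hepatocyte cultures, 6 h post-dose. Chemicals tested at several concentrations against a 0.2% DMSO vehicle; positive-direction fit relative to DMSO.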
# [5] = read-out: xenobiotic metabolism (CYP1A1), CYP1A1 (gene 1543); assay: CLD_CYP1A1_6hr: CellzDirect (CLD) Gene Expression Assay for xenobiotic metabolism (CYP1A1) at 6 hours (AID 2283661);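 as to AC50: potency for transcript induction above DMSO vehicle baseline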
# Method in brief: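 Read-out 6 h post-dose: qNPA chemiluminescent quantitation of transcript induction against 0.2% DMSO. Cells were cultured primary human hepatocytes from two separate donor preparations; phase-contrast morphology annotated apparent cytotoxicity.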
# [6] = read-out: xenobiotic metabolism (CYP1A2), CYP1A2 (gene 1544); assay: CLD_CYP1A2_6hr: CellzDirect (CLD) Gene Expression Assay for xenobiotic metabolism (CYP1A2) at 6 hours (AID 2283663);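 as to AC50: potency is for induction meaning a rise in mRNA above DMSO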
# Method in brief: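 mRNA levels quantified by quantitative nuclease protection assay with chemiluminescence, 6 h after dosing human primary hepatocyte cultures (two donors) across several concentrations, vehicle 0.2% DMSO. Induction fitted upward versus DMSO; phase-contrast cytotoxicity annotated.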
# [7] = read-out: xenobiotic metabolism (CYP2C9), CYP2C9 (gene 1559); assay: CLD_CYP2C9_6hr: CellzDirect (CLD) Gene Expression Assay for xenobiotic metabolism (CYP2C9) at 6 hours (AID 2283664)
# Method in brief: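 Readout is qNPA chemiluminescence of CYP2C9 mRNA, taken 6 h after dosing of cultured human liver primary cells at several concentrations. Activity is the increase over 0.2% DMSO baseline. Morphology-based cytotoxicity flagged yes/no.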
# [8] = read-out: alkyl and aryl transferase (GSTA2), GSTA2 (gene 2939); assay: CLD_GSTA2_6hr: CellzDirect (CLD) Gene Expression Assay for alkyl and aryl transferase (GSTA2) at 6 hours (AID 2283666)
# Method in brief: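 GSTA2 transcript induction at 6 h, quantified by nuclease protection (qNPA) with chemiluminescent detection, in human liver primary hepatocytes exposed to several compound concentrations with 0.2% DMSO as baseline; phase-contrast morphology annotated apparent cytotoxicity.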
# [9] = Tanguay_ZF_120hpf_TR_legacy: (Legacy) Oregon State University Tanguay Lab 120 Hour Post-fertilization zebrafish Assay for Touch Response (AID 2283667)
# Method in brief: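 Binary touch-response endpoint in larvae at 120 hpf after static waterborne exposure from embryo stage (28°C, 0.64% DMSO vehicle, 5 uM trimethyltin chloride as positive control); embryos dead at 24 or 120 hpf excluded; fitted as gain versus DMSO.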
# [10] = read-out: organic anion transporter (SLCO1B1), SLCO1B1 (gene 10599); assay: CLD_SLCO1B1_6hr: CellzDirect (CLD) Gene Expression Assay for organic anion transporter (SLCO1B1) at 6 hours (AID 2283668);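 also: active means mRNA induction above DMSO baseline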
# Method in brief: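 SLCO1B1 mRNA induction measured 6 h after dosing by quantitative nuclease protection with chemiluminescent read-out, in human primary hepatocyte cultures given chemicals at several concentrations (vehicle 0.2% DMSO). Increase over DMSO baseline fitted; morphology-based cytotoxicity annotated yes/no.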
# [11] = read-out: sulfotransferase (SULT2A), SULT2A1 (gene 6822); assay: CLD_SULT2A_6hr: CellzDirect (CLD) Gene Expression Assay for sulfotransferase (SULT2A) at 6 hours (AID 2283669);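 also: hits raise transcript level above the DMSO vehicle baseline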
# Method in brief: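 Measured 6 h after dosing, SULT2A1 mRNA in human hepatocyte lysates was quantified by S1 nuclease protection with chemiluminescent detection. Increases fitted against 0.2% DMSO vehicle baseline; phase-contrast cytotoxicity recorded yes/no.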
# [12] = CLD_ACTIN_24hr: CellzDirect (CLD) Gene Expression Assay for Baseline Control (Actin) at 24 hours (AID 2283670)
# Method in brief: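 This 24 h qNPA (S1 nuclease protection, chemiluminescence) actin transcript readout in cultured human liver primary cells serves as baseline control. Signal is fitted upward relative to 0.2% DMSO; chemicals tested at multiple concentrations across two donor preparations.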
# [13] = read-out: glucuronosyltransferase (UGT1A1), UGT1A1 (gene 54658); assay: CLD_UGT1A1_6hr: CellzDirect (CLD) Gene Expression Assay for glucuronosyltransferase (UGT1A1) at 6 hours (AID 2283672)
# Method in brief: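 UGT1A1 mRNA induction, read by quantitative nuclease protection assay, 6 h after dosing primary human hepatocytes (two donors, 0.2% DMSO vehicle). Gain of signal fitted relative to vehicle.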
# [14] = read-out: xenobiotic metabolism (CYP1A1), CYP1A1 (gene 1543); assay: CLD_CYP1A1_24hr: CellzDirect (CLD) Gene Expression Assay for xenobiotic metabolism (CYP1A1) at 24 hours (AID 2283673);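 also: CYP1A1 mRNA level by quantitative nuclease protection with chemiluminescence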
# Method in brief: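 Transcript levels were read at 24 h by qNPA chemiluminescence in human liver primary cells. Cells got daily fresh dosing at multiple concentrations (vehicle 0.2% DMSO). Induction fitted upward against DMSO; phase-contrast cytotoxicity annotated.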
# [15] = read-out: ABC Transporter (ABCB11), ABCB11 (gene 8647); assay: CLD_ABCB11_6hr: CellzDirect (CLD) Gene Expression Assay for ABC Transporter (ABCB11) at 6 hours (AID 2283675);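 also: hits raise ABCB11 mRNA level so AC50 marks induction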
# Method in brief: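 Read-out was ABCB11 mRNA gain of signal by quantitative nuclease protection assay, relative to 0.2% DMSO vehicle, 6 h post-dose. Cells were primary human hepatocytes from two donors, treated across multiple concentrations; phase-contrast cytotoxicity noted yes/no.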
# [16] = CLD_ACTIN_6hr: CellzDirect (CLD) Gene Expression Assay for Baseline Control (Actin) at 6 hours (AID 2283676);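 also: active means increased actin mRNA relative to DMSO vehicle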
# Method in brief: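 Baseline actin transcript level measured by qNPA (S1 nuclease protection, chemiluminescence) in human hepatocyte cultures 6 h after chemical exposure; 0.2% DMSO vehicle as reference, cytotoxicity noted from morphology.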
# [17] = read-out: Cytochrome P450 2B6 (Homo sapiens) (UniProt P20813); assay: CLD_CYP2B6_6hr: CellzDirect (CLD) Gene Expression Assay for xenobiotic metabolism (CYP2B6) at 6 hours (AID 2283677);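 also: actives raise CYP2B6 transcript above DMSO baseline so AC50 marks an inducer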
# Method in brief: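 CYP2B6 transcript levels, read by chemiluminescent qNPA, were fitted for increase versus DMSO baseline; cultured human liver hepatocytes from two donor preparations were harvested 6 h after exposure to test chemicals at multiple concentrations.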
# [18] = read-out: Cytochrome P450 2C19 (Homo sapiens) (UniProt P33261); assay: CLD_CYP2C19_6hr: CellzDirect (CLD) Gene Expression Assay for xenobiotic metabolism (CYP1A2) at 6 hours (AID 2283678)
# Method in brief: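 CYP2C19 transcript induction was quantified by quantitative nuclease protection assay with chemiluminescent read-out, 6 h after dosing. Cells were primary human hepatocytes from two donor preparations, given fresh dosing solutions daily in 0.2% DMSO vehicle. Activity was relative to DMSO.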
# [19] = CCTE_Padilla_ZF_144hpf_TERATOSCORE: (Legacy) CCTE's 144 Hour Post-fertilization zebrafish Assay Teratoscore, Padilla Lab (AID 2283679; active = hit-call score of the fitted dose curve at least 0.9, where 1 is the maximum; inactive = score below 0.9;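 also: zebrafish embryos with chorions exposed by immersion from 6-8 hpf to 5 dpf with daily renewal; teratogenicity score from eye scoring of death hatching and malformations at 144 hpf; higher score means more developmental defects relative to DMSO baseline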)
# Method in brief: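 Larvae scored by eye at 144 hpf for death, hatching and malformations after a day in clean Hanks'. Before that, daily-renewed exposure at 80 uM (0.4% DMSO, 26C) from roughly 6-8 hpf through 5 dpf, 4 embryos per chemical.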
# [20] = read-out: ABC Transporter (ABCB11), ABCB11 (gene 8647); assay: CLD_ABCB11_24hr: CellzDirect (CLD) Gene Expression Assay for ABC Transporter (ABCB11) at 48 hours (AID 2283674; active = hit-call score of the fitted dose curve at least 0.9, where 1 is the maximum; inactive = score below 0.9)
# Method in brief: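 ABCB11 transcript was quantified by qNPA chemiluminescence in cultured human liver hepatocytes 24 hours after dosing. Fresh dosing solutions were applied on consecutive days, against a 0.2% DMSO vehicle. Cytotoxicity was noted by phase-contrast morphology.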
structure (smiles),measurement,setting,value
CC(C)CCCCCCCOP(OCCCCCCCC(C)C)Oc1ccccc1,AC50,[1],active: 18.8 µM
same,AC50,[2],active: 89.3 µM
CC(C)OP(=S)(OC(C)C)SCCNS(=O)(=O)c1ccccc1,outcome,[3],inactive
same,outcome,[4],inactive
same,AC50,[5],active: 5.8 µM and active: 273 nM
same,outcome,[5],inactive
same,AC50,[1],active: 26.7 µM and active: 7.67 µM
same,outcome,[1],inactive
same,AC50,[6],active: 8.44 µM and active: 21.9 nM
same,outcome,[6],inactive
same,outcome,[7],inactive
same,outcome,[8],inactive
same,outcome,[9],inactive
same,outcome,[10],inactive
same,outcome,[11],inactive
same,outcome,[12],inactive
same,outcome,[13],inactive
same,AC50,[14],active: 20 µM and active: 15.4 µM
same,outcome,[15],inactive
same,outcome,[16],inactive
same,AC50,[17],active: 3.98 µM and active: 608 nM
same,outcome,[17],inactive
same,outcome,[18],inactive
same,AC50,[19],active: 13.1 µM
Cc1cc([N+](=O)[O-])cc([N+](=O)[O-])c1O,outcome,[9],inactive
same,AC50,[19],active: 1.51 µM
O=C1C2CC=CCC2C(=O)N1SC(Cl)(Cl)C(Cl)Cl (configuration not stated),outcome,[3],inactive
same,outcome,[4],inactive
same,outcome,[7],inactive
same,outcome,[9],inactive
same,outcome,[10],inactive
same,outcome,[11],inactive
same,AC50,[14],active: 20 µM
same,outcome,[20],inactive
same,outcome,[15],inactive
same,outcome,[16],inactive
same,outcome,[18],inactive
same,AC50,[19],active: 2.06 µM
CN(C(=O)Cc1cccc2occc12)[C@H]1CC[C@@]2(CCCO2)C[C@@H]1N1CCCC1,outcome,[9],inactive
ClP(Cl)c1ccccc1,AC50,[1],active: 26.2 µM
same,outcome,[2],inactive
O=[P+](Oc1ccccc1)Oc1ccccc1,AC50,[1],active: 16.2 µM
